Measured values from patent US20070021484A1, “Substituted N-cinnamyl benzamides” (ChemoCentryx, Inc., priority 2005, published 2007).

Chains of the proteins cited; added tags and fusions are not shown.
UniProt P25106, whole entry: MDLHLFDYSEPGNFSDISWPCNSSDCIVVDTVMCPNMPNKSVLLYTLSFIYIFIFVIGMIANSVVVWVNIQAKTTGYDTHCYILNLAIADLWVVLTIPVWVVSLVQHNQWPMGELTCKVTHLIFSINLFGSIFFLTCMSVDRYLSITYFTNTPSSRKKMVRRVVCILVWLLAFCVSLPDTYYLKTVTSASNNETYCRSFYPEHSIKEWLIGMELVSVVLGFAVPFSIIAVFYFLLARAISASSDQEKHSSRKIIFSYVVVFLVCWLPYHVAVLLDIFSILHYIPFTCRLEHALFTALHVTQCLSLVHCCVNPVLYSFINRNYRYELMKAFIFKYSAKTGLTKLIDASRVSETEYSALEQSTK

Molecular target: CCXCKR2 receptor (Homo sapiens, UniProt P25106)
Assay: Displacement of 125I-labeled SDF-1 from the CCXCKR2 receptor (radioligand binding, determination of IC50 values)
Conditions: read-out: Activity; concentration displacing at least 50% of 125I SDF-1 from CCXCKR2; MCF-7 and/or CCXCKR2 transfected MDA-MB-435S cells; 3 hr at 4° C.
Method: The ability of the compounds to displace the labeled chemokine from the CCXCKR2 receptor sites at multiple concentrations was then determined with the screening process.
Compounds that were deemed effective modulators were able to displace at least 50% of the SDF-1 from the CCXCKR2 receptor at concentrations at or below 2.1 micromolar (μM), as represented by the notation (+) for certain exemplary compounds shown in Table B below, and more preferably at concentrations at or below 700 nanomolar (nM) (++). At present, especially preferred compounds can displace at least 50% of the SDF-1 from the CCXCKR2 receptor at concentrations at or below 500 nM (+++). As stated above, Exemplary compounds that met these criteria are reproduced in Table B below. All compounds were prepared as described in the Examples above, or by related methods substituting readily available starting materials. […]
In these assays, MCF-7 and/or MDA-MB-435S cells were interrogated with the target compounds and the ability of these compounds to displace ^125I radiolabeled SDF-1 was assessed using the protocol described in Dairaghi and Gosling. […] Scintillant (MicroScint 10, Packard) was added to the wells, and the filters were counted in a Packard Topcount scintillation counter. Data were analyzed and plotted using Prism (GraphPad Prism version 3.0a for Macintosh, GraphPad Software, www.graphpad.com).

- IC50: < 500 nM
SMILES: COc1cc(C(=O)N(C/C(C)=C/c2ccccc2)C[C@@H]2CCCN2C[C@H]2CC[C@H](N)CC2)cc2c1OC(C)(C)O2
